This note sets out measurements from ChEMBL document CHEMBL1201862, “PubChem BioAssay data set” (2004).

Protein sequences, listed by entry. Tags and fused reporters are not part of them. Lines headed by an entry give the natural chain unless they say otherwise; changes in a name come on top.
UniProt Q9HC29, whole entry: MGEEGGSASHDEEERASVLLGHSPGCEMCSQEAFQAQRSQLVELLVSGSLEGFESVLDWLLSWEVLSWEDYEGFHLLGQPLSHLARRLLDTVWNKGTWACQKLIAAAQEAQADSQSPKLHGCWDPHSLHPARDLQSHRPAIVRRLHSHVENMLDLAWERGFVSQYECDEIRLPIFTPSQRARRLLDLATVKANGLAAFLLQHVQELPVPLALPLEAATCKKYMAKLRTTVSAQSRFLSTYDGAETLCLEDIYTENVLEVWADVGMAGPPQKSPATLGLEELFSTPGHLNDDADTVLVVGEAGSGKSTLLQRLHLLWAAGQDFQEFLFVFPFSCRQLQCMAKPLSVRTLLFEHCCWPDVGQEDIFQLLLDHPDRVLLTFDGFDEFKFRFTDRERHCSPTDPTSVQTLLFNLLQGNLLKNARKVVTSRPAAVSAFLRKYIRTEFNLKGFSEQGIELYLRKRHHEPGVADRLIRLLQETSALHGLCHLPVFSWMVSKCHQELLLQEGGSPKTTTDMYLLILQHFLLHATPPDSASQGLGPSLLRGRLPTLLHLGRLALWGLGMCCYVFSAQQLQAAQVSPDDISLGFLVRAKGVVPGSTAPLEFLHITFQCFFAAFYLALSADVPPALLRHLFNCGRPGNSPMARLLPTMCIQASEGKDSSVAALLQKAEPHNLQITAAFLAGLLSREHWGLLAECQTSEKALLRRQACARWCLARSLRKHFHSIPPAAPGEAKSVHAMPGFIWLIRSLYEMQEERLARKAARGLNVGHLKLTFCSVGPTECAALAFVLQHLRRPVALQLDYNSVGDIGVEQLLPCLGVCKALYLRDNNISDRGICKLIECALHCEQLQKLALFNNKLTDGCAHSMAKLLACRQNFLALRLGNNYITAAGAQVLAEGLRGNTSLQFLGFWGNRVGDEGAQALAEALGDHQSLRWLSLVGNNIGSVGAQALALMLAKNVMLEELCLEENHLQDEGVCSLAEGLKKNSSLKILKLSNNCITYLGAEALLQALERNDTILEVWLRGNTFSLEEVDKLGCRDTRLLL
UniProt P41145: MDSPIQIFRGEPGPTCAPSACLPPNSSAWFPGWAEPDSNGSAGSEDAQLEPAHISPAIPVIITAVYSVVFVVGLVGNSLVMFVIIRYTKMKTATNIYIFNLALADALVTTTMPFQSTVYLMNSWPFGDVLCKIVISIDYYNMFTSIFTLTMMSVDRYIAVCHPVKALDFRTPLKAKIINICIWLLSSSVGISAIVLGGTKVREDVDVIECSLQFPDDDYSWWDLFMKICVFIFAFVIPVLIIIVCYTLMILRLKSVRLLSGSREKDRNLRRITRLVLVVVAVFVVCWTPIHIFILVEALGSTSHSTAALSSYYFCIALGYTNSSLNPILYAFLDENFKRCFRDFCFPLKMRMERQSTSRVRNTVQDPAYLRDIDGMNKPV

A word on the IC50: it is the concentration needed to halve the response being measured. As a reminder, the AC50 is the concentration at which the activity in the assay is half-maximal.

The structures appear in SMILES notation. “And” between values parts separate entries of the source, which are not always exact repeats. Equal entries are not always repeated. The source made the active and inactive calls.

For test [1], the target named is Nucleotide-binding oligomerization domain-containing protein 2 (Homo sapiens, UniProt Q9HC29). The experiment in a line: PubChem AID 2334. Format: functional.
For test [2], the system named is HEK293. The experiment in a line: cells. The settings on record: Homo sapiens.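 Further: cells exposed to compound for 14 hours overnight before viability readout.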
The target of test [3] is T1, Nucleotide-binding oligomerization domain-containing protein 1 (Homo sapiens, UniProt Q9Y239).
T1 sequence (Q9Y239 whole entry): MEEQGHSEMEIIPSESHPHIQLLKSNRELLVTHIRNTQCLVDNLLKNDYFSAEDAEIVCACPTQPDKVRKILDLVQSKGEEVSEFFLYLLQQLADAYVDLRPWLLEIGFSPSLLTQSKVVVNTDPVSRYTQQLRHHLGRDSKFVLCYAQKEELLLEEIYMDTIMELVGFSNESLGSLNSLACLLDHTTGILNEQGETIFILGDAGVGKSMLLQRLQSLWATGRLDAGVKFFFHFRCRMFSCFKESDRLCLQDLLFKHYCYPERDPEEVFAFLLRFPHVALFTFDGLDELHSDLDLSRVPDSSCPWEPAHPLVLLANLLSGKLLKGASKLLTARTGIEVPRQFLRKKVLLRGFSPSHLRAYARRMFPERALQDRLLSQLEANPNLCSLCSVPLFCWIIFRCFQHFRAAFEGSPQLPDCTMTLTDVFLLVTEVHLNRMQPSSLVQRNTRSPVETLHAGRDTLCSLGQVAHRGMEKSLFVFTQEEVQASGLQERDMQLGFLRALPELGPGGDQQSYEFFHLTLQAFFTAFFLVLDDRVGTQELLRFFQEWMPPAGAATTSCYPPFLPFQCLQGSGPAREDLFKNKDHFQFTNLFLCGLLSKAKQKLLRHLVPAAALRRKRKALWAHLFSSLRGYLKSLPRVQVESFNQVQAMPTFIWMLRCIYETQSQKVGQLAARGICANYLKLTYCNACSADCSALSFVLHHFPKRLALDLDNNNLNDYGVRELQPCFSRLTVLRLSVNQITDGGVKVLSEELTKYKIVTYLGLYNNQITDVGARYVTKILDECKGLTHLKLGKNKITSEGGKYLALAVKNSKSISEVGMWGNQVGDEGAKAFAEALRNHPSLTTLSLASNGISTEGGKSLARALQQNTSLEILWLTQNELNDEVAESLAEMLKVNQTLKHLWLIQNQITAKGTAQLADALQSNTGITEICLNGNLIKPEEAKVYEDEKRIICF
Kind of test: blockers of NOD1 pathway activity – revised, SAR follow-up (AID 2333). Format: functional.

In test [4] the target is T2, Kappa-type opioid receptor (Homo sapiens, UniProt P41145). Kind of test: SAR analysis of small molecule antagonists of the kappa opioid receptor via a luminescent beta-arrestin assay - Set 3. [Related pubchem assays (depositor defined):AID1777, AID1778, AID1785, AID1786, AID1966, AID2133, AID2136, AID2285, AID2495]. Format: functional.
In test [5] the target is T2, Kappa-type opioid receptor. The experiment in a line: SAR analysis of small molecule antagonists of the kappa opioid receptor via a luminescent beta-arrestin assay - Set 6. [Related pubchem assays (depositor defined):AID1777, AID1778, AID1785, AID1786, AID1966, AID2133, AID2136, AID2285]. It is filed as functional.
Test [6] addresses T3, Replicative DNA helicase DnaB (Mycobacterium tuberculosis, UniProt P9WMR3).
T3 sequence (P9WMR3 whole entry): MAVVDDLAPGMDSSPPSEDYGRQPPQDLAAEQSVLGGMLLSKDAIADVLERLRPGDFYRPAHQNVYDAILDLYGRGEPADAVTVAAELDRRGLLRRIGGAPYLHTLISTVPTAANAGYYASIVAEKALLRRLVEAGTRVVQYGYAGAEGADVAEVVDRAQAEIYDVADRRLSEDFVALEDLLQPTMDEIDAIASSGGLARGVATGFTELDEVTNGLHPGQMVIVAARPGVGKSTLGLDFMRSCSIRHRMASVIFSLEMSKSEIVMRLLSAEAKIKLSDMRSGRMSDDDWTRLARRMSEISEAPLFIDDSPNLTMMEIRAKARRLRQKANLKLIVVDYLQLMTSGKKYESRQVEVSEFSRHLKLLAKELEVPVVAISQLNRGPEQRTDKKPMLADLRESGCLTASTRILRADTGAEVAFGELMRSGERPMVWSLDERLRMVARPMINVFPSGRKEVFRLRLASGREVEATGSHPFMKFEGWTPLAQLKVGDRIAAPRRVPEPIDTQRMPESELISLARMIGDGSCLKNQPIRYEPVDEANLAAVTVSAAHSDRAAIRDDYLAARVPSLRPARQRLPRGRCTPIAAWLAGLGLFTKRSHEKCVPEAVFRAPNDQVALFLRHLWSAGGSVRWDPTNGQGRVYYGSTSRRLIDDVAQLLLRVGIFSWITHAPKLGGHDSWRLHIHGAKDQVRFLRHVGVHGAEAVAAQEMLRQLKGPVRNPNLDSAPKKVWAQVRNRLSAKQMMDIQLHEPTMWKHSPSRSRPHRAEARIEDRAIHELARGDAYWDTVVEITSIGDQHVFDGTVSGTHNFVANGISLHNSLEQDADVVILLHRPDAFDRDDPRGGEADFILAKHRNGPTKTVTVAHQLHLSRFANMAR
The experiment in a line: DnaB intein splicing inhibitors, dose response, biochemical, cell-free fluorescence (AID 449749). Format: functional.

Take `Nc1nc2ccccc2n1Cc1ccc(Cl)cc1`: the IC50 was active: 11800 nM in test [1]; inactive: > 20000 nM in test [2]; active: 9.5 µM and active: 7.73 µM in test [3].

Regarding `Nc1nc2ccccc2n1C(=O)c1ccc(Cl)cc1Cl`, in test [3], the IC50 is active: 2.84 µM.

Turning to `COc1ccc(N2CCN(CCCNC(=O)Cn3c(=O)c4cccn4c4c(C)ccnc43)CC2)cc1`, the IC50 in test [4] is active: 77.4 nM; in test [5] it was active: 164 nM.

As to `Clc1ccc(COC(Cn2ccnc2)c2ccc(Cl)cc2Cl)c(Cl)c1` (configuration not stated) [MICONAZOLE NITRATE], in test [6], the AC50 was active: 2740 nM.
